US9926306B2, “Inhibition of MCL-1 and/or BFL-1/A1” (Dana-Farber Cancer Institute, Inc., priority 2012, dated 2018)

Sequences of proteins named here, by UniProt entry; tags and fusion partners are left off. A change or cut given only in a name is not applied to a line headed by its entry. Residues count along the entry.
UniProt Q16548, 1-153: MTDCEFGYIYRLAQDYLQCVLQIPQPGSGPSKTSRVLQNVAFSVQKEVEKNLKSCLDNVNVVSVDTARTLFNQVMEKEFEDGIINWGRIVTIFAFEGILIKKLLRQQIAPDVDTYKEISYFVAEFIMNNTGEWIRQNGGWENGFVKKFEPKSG

Target: BFL-1/A1ΔC (Homo sapiens (Human), UniProt Q16548)
Test: Competitive fluorescence polarization binding assay, BFL-1/A1 (FITC-BID BH3)
Details: BFL-1/A1 (IC50), Table A
Source text: FIG. 19A and FIG. 19B are graphs that show potent targeting of the anti-apoptotic protein BFL-1/A1 by MIM1. […] Thus, the complex between FITC-BID BH3 and BFL-1/A1ΔC was employed in a competitive FP assay to monitor the capacity of MIM1 to target BFL-1/A1ΔC.

Q: How did the IC50 turn out when CC(C)C(C)/N=C1\SCC(Br)(C2CC2)N1/N=C/c1cc(O)c(O)cc1O (stereo not shown) [187-19] was run?
A: The IC50 was 0.124 µM.
